Assay results from US20220296535A1, “Antibacterial Dosage Regime Using Cannabinoids” (Botanix Pharmaceuticals Limited, priority 2019, published 2022).

Assays:
[1] = test system: GP_064 S. aureus NARSA, VRS1 (VRSA); conditions: RS1, 50% human serum + 50% CaMHB
[2] = test system: GP_020 S. aureus MRSA (ATCC 43300); conditions: 50% human serum + 50% CaMHB
[3] = test system: GP_020 S. aureus MRSA (ATCC 43300); assay: microbe, parasite or virus in culture; conditions: Staphylococcus aureus, ATCC43300|MRSA, no serum (from report 99962_002); head S. aureus MRSA
[4] = test system: GP_064 S. aureus NARSA, VRS1 (VRSA); assay: microbe, parasite or virus in culture; conditions: Staphylococcus aureus, no serum (from report 99962_002), head GP_064 S. aureus NARSA
[5] = test system: GP_035 S. aureus NRS60 (ATCC 700699, NRS1; MRSA, VISA); assay: microbe, parasite or virus in culture; conditions: Staphylococcus aureus, ATCC700699|MRSA|NRS1|NRS60|VISA, no serum (from report 99962_002); head GP_035 S. aureus NRS60
[6] = test system: GP_035 S. aureus NRS60 (ATCC 700699, NRS1; MRSA, VISA); conditions: GP_035 S. aureu NRS60; 50% human serum + 50% CaMHB

Row | SMILES | MIC [1] | MIC [2] | MIC [3] [µg/mL] | MIC [4] [µg/mL] | MIC [5] [µg/mL] | MIC [6]
1 | C=C(C)C1CCC(C)=CC1c1c(O)cc(CCCCC)cc1O (stereo not drawn) [Cannabidiol, 2-[3-methyl-6-(1-methylethenyl)-2-cyclohexen-1-yl]-5-pentyl-1,3-benzenediol] | inactive | inactive | 2 (≈ 6.36 µM) | 2 (≈ 6.36 µM) | 1 (≈ 3.18 µM) | inactive
2 | C/C(=C\C(=O)OCCCCCCCCC(=O)O)C[C@@H]1OC[C@H](C[C@@H]2O[C@H]2[C@@H](C)[C@H](C)O)[C@@H](O)[C@H]1O [Mupirocin] | – | 4/8 | – | – | – | 4/8
3 | CN[C@H](CC(C)C)C(=O)N[C@H]1C(=O)N[C@@H](CC(N)=O)C(=O)N[C@H]2C(=O)N[C@H]3C(=O)N[C@H](C(=O)N[C@H](C(=O)O)c4cc(O)cc(O)c4-c4cc3ccc4O)[C@H](O)c3ccc(c(Cl)c3)Oc3cc2cc(c3O[C@@H]2O[C@H](CO)[C@@H](O)[C@H](O)[C@H]2O[C@H]2C[C@](C)(N)[C@H](O)[C@H](C)O2)Oc2ccc(cc2Cl)[C@H]1O [Vancomycin] | – | – | – | – | – | 4/16

Values after ≈ are worked out from the molar mass of the structure shown. Where two headings read alike, the source gives them in different places.
